In US20040087506A1, “Methods of modulating FabH activity” (SmithKline Beecham Corporation, priority 1999, published 2004):

Biological target: T1, E. coli FabH (Escherichia coli, UniProt P0A6R0)
T1 sequence (P0A6R0 1-317): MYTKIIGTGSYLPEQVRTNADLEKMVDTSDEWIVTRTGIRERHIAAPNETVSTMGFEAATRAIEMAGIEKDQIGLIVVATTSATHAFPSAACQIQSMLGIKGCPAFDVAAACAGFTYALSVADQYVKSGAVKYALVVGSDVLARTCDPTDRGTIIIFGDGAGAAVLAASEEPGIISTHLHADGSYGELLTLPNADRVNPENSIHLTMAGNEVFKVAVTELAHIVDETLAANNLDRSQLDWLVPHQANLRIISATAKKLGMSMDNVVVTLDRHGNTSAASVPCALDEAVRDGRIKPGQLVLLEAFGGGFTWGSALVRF
Assay: Kinetic analysis of E. coli FabH (optimized activity assay)
Details: read-out: Apparent Km; substrate of FabH; ping-pong mechanism, acetyl-CoA first substrate, malonyl-ACP second

## malonyl-ACP
  Km: 6.8 µM
